# Data reported in PubChem BioAssay AID504441 (Broad Institute, 2011).
# This is a selection; strong and weak results do not stand in their true shares. Some tests of the compounds listed are not included; inactive here does not mean inactive elsewhere. Activity calls are given as the source filed them. Cut-off read from the data, not from the text of the source: active = inhibition above about 50%; inactive = the rest.
# Target: Dual specificity tyrosine-phosphorylation-regulated kinase 1A (Rattus norvegicus) (UniProt Q63470)
# Assay: inhibition of Dyrk1A kinase activity – biochemical, single point, plate reader, primary screen (AID 504441);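 note: plate controls were vehicle with enzyme for no effect and no enzyme for full effect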
# Details: ADP-Glo luminescence, NFATc1 peptide, at 12.5 µM, stronger effect = higher value
row,Structure (SMILES),inhibition
1,COc1ccc(Cl)cc1C(=O)NCC1(N(C)C)CCCCC1,inactive: -5.09%
2,O=C(NCC1(N2CCCCC2)CCCCC1)c1cccc(Cl)c1,inactive: 17.1%
3,CN(C)C1(CNC(=O)c2ccc(Br)cc2)CCCCC1,inactive: 5.71%
4,COc1cc(C(=O)NCC2(N(C)C)CCCCC2)c([N+](=O)[O-])cc1OC,inactive: -3.41%
5,COc1ccc(Br)c(C(=O)NCC2(N3CCCCC3)CCCCC2)c1,inactive: -4.28%
6,CN(C)c1cccc(C(=O)NCC2(N(C)C)CCCCC2)c1,inactive: 0.281%
7,CC(C)Oc1ccc(C(=O)NCC2(N(C)C)CCCCC2)cc1,inactive: -2.79%
8,O=C(OC1CN2CCC1CC2)C(CO)(c1ccccc1)c1ccccc1 (stereo not drawn),inactive: -5.83%
9,CC(C)N1C(=O)CC2(CCN(CCOC(=O)C(O)(c3ccccc3)c3ccccc3)CC2)C1=O,inactive: -3.86%
10,CCN(CC)CC(C)C(C)OC(=O)C(O)(c1ccccc1)c1ccccc1 (stereo not drawn),inactive: -5.56%
11,COc1cc(SC)ccc1C(=O)NCC1(N(C)C)CCCCC1,inactive: 3.09%
12,Cc1ccc(C(=O)NCC2(N3CCCCC3)CCCCC2)cc1,inactive: -3.61%
13,O=C(NCC1(N2CCCCC2)CCCCC1)c1cc([N+](=O)[O-])ccc1Cl,inactive: 8.19%
14,CN1[C@@H]2CC[C@H]1CC(OC(=O)C(O)(c1ccccc1)c1ccccc1)C2 (stereo partly drawn),inactive: -3.32%
15,C=CCN1CCN(CCOC(=O)C(O)(c2ccccc2)c2ccccc2)CC1,inactive: -1.7%
16,O=C(NCC1(N2CCCCC2)CCCCC1)c1cc(F)c(F)cc1Cl,inactive: -1.42%
17,Cc1cc(C(=O)NCC2(N3CCCCC3)CCCCC2)ccc1[N+](=O)[O-],inactive: -0.729%
18,CCN1CCCC(OC(=O)C2(O)c3ccccc3C=Cc3ccccc32)C1 (stereo not drawn),inactive: 6%
19,O=C(NCC1(N2CCCCC2)CCCCC1)c1cccc(Br)c1,inactive: 0.0377%
20,COc1ccc(C(=O)NCC2(N(C)C)CCCCC2)cc1,inactive: -3.66%
21,Cc1ccccc1C(=O)NCC1(N2CCCCC2)CCCCC1,inactive: 2.21%
22,CN(C)C1CCCC1OC(=O)C(O)(c1ccccc1)c1ccccc1 (stereo not drawn),inactive: -3.72%
23,CN(C)c1ccc(C(=O)NCC2(N(C)C)CCCCC2)cc1,inactive: -0.0107%
